A short description of the test: Acridine orange (AO) dye displacement competitive binding assay. The following applies: unmodified CB[7] 6 μM, one-site competitive binding model, H2O, read-out: equilibrium dissociation constant / binding affinity to CB[7]. Here is the method:
NOVOLOG® samples were diluted to concentrations of 0, 0.01, 0.1, 0.3, 0.5, 1, 1.5, 2, 3, 4 μM in H2O. […] Samples were incubated overnight in light-free conditions, and fluorescent spectra were collected on an BioTek SynergyH1 microplate reader, exciting at 485 nm and collecting the resulting fluorescent spectra from 495 to 650 nm.

Regarding `CC[C@H](C)[C@H](NC(=O)[C@@H]1CCCN1C(=O)CNC(=O)[C@H](Cc1ccccc1)NC(=O)[C@H](CC(N)=O)NC(=O)[C@H](CC(N)=O)NC(=O)[C@H](CO)NC(=O)[C@H](CO)NC(=O)[C@H](Cc1c[nH]cn1)NC(=O)[C@@H](NC(=O)[C@H](CC(C)C)NC(=O)[C@H](Cc1ccccc1)NC(=O)[C@H](CC(N)=O)NC(=O)[C@H](C)NC(=O)[C@H](CC(C)C)NC(=O)[C@H](CCCNC(=N)N)NC(=O)[C@H](CCC(N)=O)NC(=O)[C@@H](NC(=O)[C@H](C)NC(=O)[C@@H]1CSSC[C@H](NC(=O)[C@@H](N)CCCCN)C(=O)N[C@@H](CC(N)=O)C(=O)N[C@@H]([C@@H](C)O)C(=O)N[C@@H](C)C(=O)N[C@@H]([C@@H](C)O)C(=O)N1)[C@@H](C)O)C(C)C)C(=O)N[C@@H](CC(C)C)C(=O)N1CCC[C@H]1C(=O)N1CCC[C@H]1C(=O)N[C@H](C(=O)N[C@@H](CC(N)=O)C(=O)N[C@H](C(=O)NCC(=O)N[C@@H](CO)C(=O)N[C@@H](CC(N)=O)C(=O)N[C@H](C(=O)N[C@@H](Cc1ccc(O)cc1)C(N)=O)[C@@H](C)O)C(C)C)[C@@H](C)O` [pramlintide], the Kd was determined as 38 µM.

(Values after patent publication US20220125886A1, “CO-FORMULATIONS OF AMYLIN ANALOGUES WITH INSULIN ANALOGUES FOR TREATMENT OF DIABETES” (The Board of Trustees of the Leland Stanford Junior …, priority 2019, published 2022).)
